Ab-91 heavy chain CDR variants: yeast mating affinities

Binding partner: SARS-CoV-2 spike HR2 peptide, sequence PDVDLGDISGINAS.

Ab-91 is the parent antibody, in scFv form: VL, then three GGGGS repeats, then VH. The light chain is unchanged in all variants.
VL: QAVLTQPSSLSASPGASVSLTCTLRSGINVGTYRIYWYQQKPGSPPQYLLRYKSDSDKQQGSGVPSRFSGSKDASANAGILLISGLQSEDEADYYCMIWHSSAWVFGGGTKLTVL
VH: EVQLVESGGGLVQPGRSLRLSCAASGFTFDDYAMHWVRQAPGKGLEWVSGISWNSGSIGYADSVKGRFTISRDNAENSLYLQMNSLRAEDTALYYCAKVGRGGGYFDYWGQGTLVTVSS

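Phage display of a naive human antibody library on the peptide gave the parent. Variants in AAYL51 differ from the parent at up to three CDR positions; double and triple changes were sampled at random. In AlphaSeq, yeast of one mating type display the scFv and yeast of the other type display the target. The frequency of each diploid, read from paired DNA barcodes, reflects how well the two displayed proteins bind. Each replicate has its own calibration line, from reference interactions of the BCL2 family. There are three technical replicates.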

Substitutions are numbered in sequence along the VH above, starting at 1 (not Kabat).
This list gathers variants with a substitution at D31 (VH, numbered from residue 1).
Values are log10 of the apparent Kd in nM; lower means stronger binding.
A mean of the replicates is given; it leaves out those without a signal.
"not detected" marks a missing value. The strain was present, yet no cells mated with the target were sequenced in any replicate, which points to weak or no binding.

changes,"mean, log10 nM",replicates with signal,signal with controls
D31L/S55I/A61D,3.16,1/3,0/9
D31I/A33M/G103M,not detected,0/3,0/9
D31K/R101E/G102R,2.57,2/3,0/9
D31H/G59F/Y105K,4.54,2/3,7/9
D31N/G59Q/G100Y,not detected,0/3,0/9
G26V/D31Y,5.47,2/3,3/9
D31H/G59L/F106I,not detected,0/3,1/9
F29R/D31R/N54I,4.64,1/3,3/9
D31S/A33T/R101H,not detected,0/3,0/9
D31W/Y60K/R101L,not detected,0/3,1/9
F29N/D31I/G103D,not detected,0/3,2/9
D31K/S52K/G100I,5.13,1/3,1/9
D31G/S52E/S57H,not detected,0/3,3/9
G26M/D31I/S57I,4.53,2/3,2/9
D31S/I51G/S52N,4.60,2/3,3/9
F29K/D31Q/S52E,not detected,0/3,2/9
D31Y/S55W/V64M,not detected,0/3,0/9
D31A/S57M/G100Q,not detected,0/3,0/9
D31R/N54R/S55D,4.41,1/3,2/9
D31V/H35A/S55C,not detected,0/3,1/9
F27K/D31A/Y108L,3.64,3/3,3/9
D31A/S52E/N54E,4.56,2/3,5/9
D31S/S55N/I58C,2.74,3/3,0/9
D31T/W53A,4.04,3/3,1/9
G26I/D31N/S63D,not detected,0/3,1/9
D31W/K65L/G100D,not detected,0/3,0/9
F27S/T28F/D31H,1.35,3/3,5/9
D31F/Y32D/G59M,not detected,0/3,3/9
D31G/M34S/I58Y,4.72,2/3,2/9
D30Q/D31E,not detected,0/3,1/9
D31E/M34D/D107Y,4.04,1/3,2/9
D31R/G103R,2.75,3/3,2/9
D31N/S55G/G104C,not detected,0/3,0/9
D31G/I58D/G100R,1.36,3/3,0/9
D31I/S55R/R101Y,not detected,0/3,0/9
G26D/D31I/F106Q,not detected,0/3,0/9
G26Q/D31H/V64G,5.22,3/3,8/9
D31R,0.50,3/3,8/9
F27Y/D31L/G56T,not detected,0/3,2/9
D31T/G50T/Y105D,not detected,0/3,0/9
D31I,1.66,3/3,0/9
D31N/G56P/S57N,3.82,2/3,2/9
D31R/K65R/D107G,0.49,3/3,4/9
D31T/G56P/D107V,not detected,0/3,1/9
D31Q/G59K/G103N,4.83,3/3,4/9
F27R/D31W/S55V,4.99,1/3,6/9
D31P/K65D,not detected,0/3,2/9
D31N/G104N/D107A,0.17,3/3,0/9
D31I/N54W/A61W,not detected,0/3,1/9
D31Q/G100K/R101I,not detected,0/3,0/9
D31I/M34Q,4.72,3/3,7/9
G26E/D31G/G104Y,4.51,1/3,1/9
D31T/G103M/D107W,not detected,0/3,1/9
D31E/R101G/D107C,4.53,3/3,2/9
D31E/A33E/G50C,5.62,3/3,4/9
D31W/Y32F/I58V,not detected,0/3,0/9
D31G/R101M/F106A,not detected,0/3,3/9
D31Q,not detected,0/3,2/9
D31F/S63R/D107M,4.53,1/3,2/9
G26W/D31S/M34E,5.06,2/3,4/9
D31M/G50R/S52R,not detected,0/3,2/9
D31C/S52C/G56P,not detected,0/3,2/9
G26R/D30K/D31H,not detected,0/3,0/9
D31L/G50H/K65Y,4.37,1/3,0/9
D31G/S57F/G103H,not detected,0/3,0/9
D31R/Y60E,0.97,3/3,0/9
D31V/A61N/G103D,not detected,0/3,0/9
D31E/A61L/D62W,2.32,1/3,0/9
D31G/S57C/G102Y,not detected,0/3,0/9
D31L/Y32V/D62T,4.23,1/3,0/9
D31C/S57N/G104W,1.71,3/3,1/9

The last 4 entries again:

changes,"mean, log10 nM",replicates with signal,signal with controls
D31E/A61L/D62W,2.32,1/3,0/9
D31G/S57C/G102Y,not detected,0/3,0/9
D31L/Y32V/D62T,4.23,1/3,0/9
D31C/S57N/G104W,1.71,3/3,1/9

Empty control strains, which show no peptide, gave a signal in 21% of pairings with library AAYL51; the median was 4.54 and 95% of these signals were weaker than 3.26. No background was subtracted. Also given: how often the same scFv was detected with the empty control strains.

The measurements come from Engelhart et al. 2022 (doi:10.1038/s41597-022-01779-4) through the FLAb antibody collection.